Assay results as given in patent publication US6015808A, “Synthesis of pharmaceutical compositions with lactams and β-lactams/oxo thia azabicyclo compounds” (priority 1995, dated 2000).

System: MAC strain 101 in mouse peritoneal macrophages or J774-A cell lines
Experiment: activity against MAC inside macrophages (CFU counts)
Settings: intact living macrophage

SMILES: NCC[C@H](O)C(=O)N[C@@H]1C[C@H](N)[C@@H](O[C@H]2O[C@H](CN)[C@@H](O)[C@H](O)[C@H]2O)[C@H](O)[C@H]1O[C@H]1O[C@H](CO)[C@@H](O)[C@H](N)[C@H]1O [amikacin]
- penetration of macrophages / killing of MAC in situ: could not penetrate the intact living macrophage
